Source: ChEMBL document CHEMBL1909518, “Small molecule receptor protein tyrosine phosphatase γ (RPTPγ) ligands that inhibit phosphatase activity via perturbation of the tryptophan-proline-aspartate (WPD) loop” (J Med Chem, 2011)

Experiments:
[1] = target: T1, Receptor-type tyrosine-protein phosphatase gamma (Homo sapiens, UniProt P23470); experiment: Inhibition of RPTPgamma expressed in Escherichia coli BL21 (DE3) assessed as reduction in dephosphorylation of Z'-Lyte phospho-Tyr 1 peptide preincubated for 40 mins by FRET assay
T1 sequence (P23470 whole entry): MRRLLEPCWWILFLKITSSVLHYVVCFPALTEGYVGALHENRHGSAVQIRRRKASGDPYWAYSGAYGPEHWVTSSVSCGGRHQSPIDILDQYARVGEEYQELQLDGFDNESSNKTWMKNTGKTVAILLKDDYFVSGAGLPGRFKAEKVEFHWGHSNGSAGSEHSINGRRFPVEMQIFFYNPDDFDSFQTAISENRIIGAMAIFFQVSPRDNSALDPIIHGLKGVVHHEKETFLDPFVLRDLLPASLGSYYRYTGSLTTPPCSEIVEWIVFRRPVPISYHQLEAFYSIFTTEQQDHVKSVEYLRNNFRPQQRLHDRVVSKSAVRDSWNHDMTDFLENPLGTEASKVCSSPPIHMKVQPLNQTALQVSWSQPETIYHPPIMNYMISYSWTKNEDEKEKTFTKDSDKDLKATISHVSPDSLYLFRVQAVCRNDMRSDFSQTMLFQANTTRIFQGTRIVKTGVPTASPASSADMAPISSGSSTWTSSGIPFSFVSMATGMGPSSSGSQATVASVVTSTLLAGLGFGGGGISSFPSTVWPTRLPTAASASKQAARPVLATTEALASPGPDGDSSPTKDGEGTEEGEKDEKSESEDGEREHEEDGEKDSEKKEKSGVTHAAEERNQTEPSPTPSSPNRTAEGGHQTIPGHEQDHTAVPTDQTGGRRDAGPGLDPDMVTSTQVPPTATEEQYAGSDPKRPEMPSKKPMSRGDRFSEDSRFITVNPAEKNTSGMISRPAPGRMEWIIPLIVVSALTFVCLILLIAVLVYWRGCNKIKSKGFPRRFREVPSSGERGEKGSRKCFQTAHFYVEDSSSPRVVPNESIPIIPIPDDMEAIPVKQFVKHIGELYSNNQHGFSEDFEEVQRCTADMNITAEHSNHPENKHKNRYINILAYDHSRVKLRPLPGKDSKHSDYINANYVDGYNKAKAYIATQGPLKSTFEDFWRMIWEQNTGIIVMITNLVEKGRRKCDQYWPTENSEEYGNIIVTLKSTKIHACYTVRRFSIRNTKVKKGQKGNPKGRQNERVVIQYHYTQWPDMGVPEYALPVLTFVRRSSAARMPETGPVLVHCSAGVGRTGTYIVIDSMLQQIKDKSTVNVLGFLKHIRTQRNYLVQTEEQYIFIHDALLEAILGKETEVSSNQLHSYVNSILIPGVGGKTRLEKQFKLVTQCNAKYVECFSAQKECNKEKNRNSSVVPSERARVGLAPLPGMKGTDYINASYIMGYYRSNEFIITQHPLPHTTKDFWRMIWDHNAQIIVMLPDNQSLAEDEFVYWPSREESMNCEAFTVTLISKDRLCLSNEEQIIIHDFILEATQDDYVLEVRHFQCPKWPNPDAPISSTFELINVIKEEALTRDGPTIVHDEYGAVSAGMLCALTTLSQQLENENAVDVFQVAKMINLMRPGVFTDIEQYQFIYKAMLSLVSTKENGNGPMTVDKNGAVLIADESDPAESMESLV

[2] = target: T1, Receptor-type tyrosine-protein phosphatase gamma; experiment: Inhibition of RPTPgamma expressed in Escherichia coli BL21 (DE3) assessed as reduction in dephosphorylation of Z'-Lyte phospho-Tyr 1 peptide preincubated for 20 mins by Lineweaver-Burk plot
[3] = target: T1, Receptor-type tyrosine-protein phosphatase gamma; experiment: Inhibition of RPTPgamma expressed in Escherichia coli BL21 (DE3) assessed as reduction in dephosphorylation of Z'-Lyte phospho-Tyr 1 peptide preincubated for 20 mins by FRET assay

`O=C(O)c1sccc1SCc1ccc(Cl)c(Cl)c1` was tested, and the IC50 [1] was 2500 nM, the Ki [2] was 2500 nM and the IC50 [3] was 2600 nM.
